Results as given in PubChem BioAssay (Tox21).
Values joined by “and” are separate entries in the source; they are usually repeats but may differ in a detail not shown here. Equal values may be shown once. The entries are a selection whose mix differs from that of the whole data set. Inconclusive results are not listed. The source holds several records for some structures; these can differ, active in one and inactive in another. A call without a number means that no potency is given here. Active and inactive are the calls of the source. Calls follow the shape of the dose curve; as a rule, active = well fitted activation curve with a large enough effect in the signal ratio in the repeat runs (not every such curve was filed as active); inconclusive = weak or mixed curves; inactive = flat fitted curve, though single readings scatter; the % refers to the signal ratio.

Assay: qHTS assay to identify small molecule agonists of H2AX (AID 1224845)
Settings: CHO-K1 phospho-H2AX Ser139 HTRF, 3 h; series mostly up to 154 µM
Excerpt: National Center for Advancing Translational Sciences [NCATS]
NIH Chemical Genomics Center [NCGC]
U.S. Environmental Protection Agency [EPA]
National Institutes of Environmental Health Sciences [NIEHS]
National Toxicology Program [NTP]
U.S. Food and Drug Administration [FDA]
HTRF phospho-H2AX (Ser139) assay (Cisbio Bioassays, US) enables the quantitative detection of the histone variant H2AX when phosphorylated on serine 139. When double-stranded DNA breaks, either by ionizing radiation or endogenous physiological processes, H2AX becomes phosphorylated at Ser139. This phospho-Ser139 serves as a sensitive biomarker for the detection of such breaks, localizing the site of DNA repair. So, HTRF phospho-H2AX Ser139 is a pertinent assay to study genome stability, the cell cycle, DNA repair, and it serves as a biomarker for cancer, and to understand aging. Wild type CHO-K1 cells were used to identify the inducers of Phospho-H2AX Ser 139 from the Tox21 10K compound collections.
Tox21 Assay Protocol Summary:
The CHO-K1 cells suspended in culture medium containing 10% FBS were dispensed at 1000 cells/ 3 ul/well in 1536-well white wall/solid bottom plates (Greiner Bio-One North America, NC) using a Multidrop Combi (Thermo Fisher Scientific Inc., Waltham, MA). After the assay plates were incubated at 37C overnight, 23 nl of compounds at 15 concentrations (from 5-48 columns) or positive control (from 1 to 4 columns) were transferred to the assay plates using a Pintool station (Wako, San Diego, CA) into each well resulting in a final DMSO concentration of 0.76%. After 3hr incubation at 37C, 1 uL/well Supplemented Lysis buffer (diluted 100 fold blocking reagent in lysis buffer) (HTRF Phospho-H2A.X (S139) Assay kit from Cisbio US Inc., Bedford, MA) was added using a Flying Reagent Dispenser (FRD) (Aurora Discovery, CA). After 10sec spin at 1000 rpm in a plate centrifuge, the assay plates were incubated at room temperature for 30 min. Then followed by the addition of 1 uL/well detection buffer (containing a mixture of two antibodies, one labeled with cryptate, Anti pH2AX (S139)-K and another labeled with d2, Anti H2AX-d2) using FRD. After incubation at room temperature for 24 hr, the time resolved fluorescence at excitation 320 nm and emissions at 665 nm and 620 nm was measured using an Envision plate reader (PerkinElmer, Waltham, MA).
Potency is read from the fitted curve at half-maximal effect.

SMILES | Potency | activation (H2AX phosphorylation)
COC(=O)Cl | inactive | 
Cc1cc([N+](=O)[O-])c(O)c([N+](=O)[O-])c1 | inactive | 
CN(C(=O)Cc1ccc(Cl)c(Cl)c1)[C@H]1CC[C@@]2(CCCO2)C[C@@H]1N1CCCC1 | inactive | 
CN(N=O)C(=N)N[N+](=O)[O-] | active: 17.8 µM | 
O=C(Cl)OCCOC(=O)Cl | inactive | 
CCCCOP(OCCCC)OCCCC | inactive | 
O=[N+]([O-])c1ccc(S(=O)(=O)O)c([N+](=O)[O-])c1 | inactive | 
CN(C(=O)Cc1ccccc1)[C@H]1CC[C@@]2(CCCO2)C[C@@H]1N1CCCC1 | inactive | 
CCCCC(CC)CO[P+](=O)OCC(CC)CCCC (configuration not stated) | inactive | 
CCCCCCCCCCCCCC[P+](CCCCCC)(CCCCCC)CCCCCC | active: 20 µM | 
Cc1cc([N+](=O)[O-])cc([N+](=O)[O-])c1O | inactive | 
CCOP(=S)(CC)Sc1ccccc1 (configuration not stated) | inactive | 
CCNC(C)Cc1ccc2c(c1)OCO2 (configuration not stated) | inactive | 
COP(=S)(Cl)OC | inactive | 
ClP(Cl)c1ccccc1 | inactive | 
CC(C)OP(=S)(OC(C)C)SCCNS(=O)(=O)c1ccccc1 | inactive | 
O=[P+](Oc1ccccc1)Oc1ccccc1 | inactive | 
O=C(Cl)Oc1ccccc1 | inactive | 
O=P(Cl)(Oc1ccccc1)Oc1ccccc1 | inactive | 
CCCCO[P+](=O)OCCCC | inactive | 
O=[p+]1oc2ccccc2c2ccccc21 (configuration not stated) | inactive | 
CC(C)CCCCCCCOP(OCCCCCCCC(C)C)Oc1ccccc1 | inactive | 
O=C1C2CC=CCC2C(=O)N1SC(Cl)(Cl)C(Cl)Cl (configuration not stated) | active: 6.4 µM and active: 3.18 µM | 
CN(C(=O)Cc1cccc2occc12)[C@H]1CC[C@@]2(CCCO2)C[C@@H]1N1CCCC1 | inactive | 
O=P(Cl)(Cl)c1ccccc1 | inactive | 
CCOC(=O)Cl | inactive | 
CCC(C)(OOC(C)(C)C)OOC(C)(C)C |  | inactive: -2.61% [at 31.6 µM]
